{
  "sequences": {"note": "Sequences of proteins named here, by UniProt entry; tags and fusion partners are left off. A change or cut given only in a name is not applied to a line headed by its entry.", "UniProt P08684, whole entry": "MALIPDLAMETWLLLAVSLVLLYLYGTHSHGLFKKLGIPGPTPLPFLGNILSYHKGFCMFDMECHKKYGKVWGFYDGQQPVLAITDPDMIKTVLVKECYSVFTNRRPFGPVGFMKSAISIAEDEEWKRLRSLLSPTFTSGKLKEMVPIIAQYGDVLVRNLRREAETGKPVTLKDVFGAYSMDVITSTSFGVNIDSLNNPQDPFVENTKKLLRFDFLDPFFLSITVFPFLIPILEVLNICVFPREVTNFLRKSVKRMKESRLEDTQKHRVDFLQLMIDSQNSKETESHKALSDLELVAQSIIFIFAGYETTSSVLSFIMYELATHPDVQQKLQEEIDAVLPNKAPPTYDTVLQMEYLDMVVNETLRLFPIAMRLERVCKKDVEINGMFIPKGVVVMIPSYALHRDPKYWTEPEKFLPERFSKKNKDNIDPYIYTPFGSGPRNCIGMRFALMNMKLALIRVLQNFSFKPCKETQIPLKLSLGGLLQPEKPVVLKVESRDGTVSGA", "UniProt P33261, whole entry": "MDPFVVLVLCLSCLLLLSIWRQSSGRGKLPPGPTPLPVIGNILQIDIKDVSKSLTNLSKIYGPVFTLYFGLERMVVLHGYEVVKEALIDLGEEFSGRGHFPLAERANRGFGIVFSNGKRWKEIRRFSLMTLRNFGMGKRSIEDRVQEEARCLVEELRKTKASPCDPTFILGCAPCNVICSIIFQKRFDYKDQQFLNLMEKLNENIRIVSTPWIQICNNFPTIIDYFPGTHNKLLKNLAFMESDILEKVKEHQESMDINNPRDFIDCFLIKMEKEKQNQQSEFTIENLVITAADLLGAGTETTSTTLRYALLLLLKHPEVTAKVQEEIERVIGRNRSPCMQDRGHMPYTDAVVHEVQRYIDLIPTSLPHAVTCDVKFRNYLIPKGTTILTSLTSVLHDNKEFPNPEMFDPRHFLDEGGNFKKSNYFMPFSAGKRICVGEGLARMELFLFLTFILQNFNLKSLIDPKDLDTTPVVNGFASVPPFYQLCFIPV", "UniProt P05177, whole entry": "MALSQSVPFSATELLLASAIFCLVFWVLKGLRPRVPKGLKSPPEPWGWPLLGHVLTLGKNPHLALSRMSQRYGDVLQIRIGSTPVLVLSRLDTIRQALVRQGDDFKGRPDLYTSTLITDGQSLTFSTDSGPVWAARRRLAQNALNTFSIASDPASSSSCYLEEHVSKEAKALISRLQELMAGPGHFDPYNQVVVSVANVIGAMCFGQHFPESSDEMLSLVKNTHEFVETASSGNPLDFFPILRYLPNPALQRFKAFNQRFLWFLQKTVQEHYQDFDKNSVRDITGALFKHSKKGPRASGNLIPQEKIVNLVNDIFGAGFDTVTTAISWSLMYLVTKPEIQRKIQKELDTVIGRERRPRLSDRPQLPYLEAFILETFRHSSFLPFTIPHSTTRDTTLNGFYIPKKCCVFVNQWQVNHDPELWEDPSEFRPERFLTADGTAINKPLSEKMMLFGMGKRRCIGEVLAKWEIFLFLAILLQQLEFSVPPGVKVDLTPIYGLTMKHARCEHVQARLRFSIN", "UniProt P05181": "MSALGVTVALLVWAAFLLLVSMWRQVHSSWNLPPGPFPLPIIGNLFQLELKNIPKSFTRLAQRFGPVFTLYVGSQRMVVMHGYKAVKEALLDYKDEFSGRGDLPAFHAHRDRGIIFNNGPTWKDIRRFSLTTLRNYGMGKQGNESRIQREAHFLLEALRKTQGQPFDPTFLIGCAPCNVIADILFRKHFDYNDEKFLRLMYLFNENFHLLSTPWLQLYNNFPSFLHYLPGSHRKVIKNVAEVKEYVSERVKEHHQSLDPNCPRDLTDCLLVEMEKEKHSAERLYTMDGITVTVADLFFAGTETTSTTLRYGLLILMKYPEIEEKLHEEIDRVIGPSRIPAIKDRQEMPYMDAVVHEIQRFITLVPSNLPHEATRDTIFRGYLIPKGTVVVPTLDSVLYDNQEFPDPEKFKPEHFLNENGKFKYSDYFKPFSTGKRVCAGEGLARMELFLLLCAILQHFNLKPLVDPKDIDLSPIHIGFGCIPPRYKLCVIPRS"},
  "source": "paper PMC8857812",
  "about": "“In vitro evaluation of the inhibition potential of echinacoside on human cytochrome P450 isozymes” (BMC Complementary Medicine and Therapies, 2022)",
  "key": {"[1]": {"parameters": "method as in PMID 29783690", "conditions": "after echinacea tablet ingestion; cited from earlier work"}, "CYP3A4": {"biological_target": "T1, CYP3A4 (Homo sapiens, UniProt P08684)", "T1 construct": "tissue PrimeTox M10000.201800; host or cells: pooled human liver microsomes (50 donors)", "test": "CYP3A4 inhibition in HLMs, testosterone 6β-hydroxylation probe reaction", "type": "in vitro ADME", "conditions": "pooled HLMs; ECH 0-100 μM; substrate testosterone 50 μM; read-out: IC50 of CYP3A4 enzyme activity", "description": "(§1) Eight positive controls were used for different CYPs: 10 μM furafylline for CYP1A2, 50 μM clomethiazole for CYP2E1, 50 μM tranylcypromine for CYP2C19, 1 μM ketoconazole for CYP3A4, 10 μM tranylcypromine for CYP2A6, 5 μM montelukast for CYP2C8, 10 μM sulfaphenazole for CYP2C9, and 10 μM quinidine for CYP2D6. Phenotyping experiments were conducted by probe reactions of eight HLMs CYPs: CYP1A2 (by phenacetin), 2E1(by chlorzoxazone), 2C19 (by S-mephenytoin), 3A4 (by testosterone), 2A6 (by coumarin), 2C8 (by paclitaxel), 2C9 (by diclofenac), 2D6 (by dextromethorphan) to study the effect of ECH in vitro (Table 1). […] The reaction was initiated by adding a newly prepared NADPH generating system, maintained at 37 °C for 30 min, and then terminated by the addition of acetonitrile. The incubation conditions were optimized to assure that the reaction was linear with time and protein concentration. […]\n(§2) The quantification for the corresponding metabolites was performed using a validated single LC/MS/MS run at an Ultimate 3000 HPLC system and a TSQ Quantis™ triple quadrupole mass spectrometer equipped with a heated electrospray ionization (ESI) source (Thermo Fisher, USA). […]\n(§3) Briefly, reaction mixtures containing HLMs, substrate and protein were incubated with a series of ECH solutions with different concentrations (0, 2.5, 5, 10, 25, 50, 100 μM). […] IC50 values were calculated by Graphpad Prism 7."}, "CYP2C19 [2]": {"biological_target": "T2, CYP2C19 (Homo sapiens, UniProt P33261)", "T2 construct": "tissue PrimeTox M10000.201800; host or cells: pooled human liver microsomes (50 donors)", "test": "Inhibition kinetics of CYP2C19 in HLMs (Lineweaver-Burk plots)", "type": "in vitro ADME", "conditions": "secondary plot of Lineweaver-Burk", "description": "(§4) To evaluate the kinetic mechanisms of ECH towards CYP1A2, CYP2E1, and CYP2C19, the incubations were conducted using different substrate concentrations and various ECH concentrations with a two-step incubation scheme, and the relative remaining activities were determined.\n(§5) A one enzyme Michaelis Menten model with competitive substrate inhibition: V=VmaxS/Km1+I/KI+Sa\n(§6) Michaelis-Menten model with uncompetitive substrate inhibition: V=VmaxS/Km+S1+I/KIKi\n(§7) I: the concentration of the ECH; KI: the inhibition constant; Kinact: inactivation rate constant; S: the concentration of the substrate: Km:\n(§8) The inhibitory effects of ECH on CYP enzymes are presented graphically as Lineweaver-Burk’s plots indicating Ki values."}, "CYP1A2 [3]": {"biological_target": "T3, CYP1A2 (Homo sapiens, UniProt P05177)", "T3 construct": "tissue PrimeTox M10000.201800; host or cells: pooled human liver microsomes (50 donors)", "test": "Inhibition kinetics of CYP1A2 in HLMs (Lineweaver-Burk plots)", "type": "in vitro ADME", "conditions": "secondary plot of Lineweaver-Burk", "description": "as §4, §5, §6, §7, §8"}, "CYP2E1 [4]": {"biological_target": "T4, CYP2E1 (Homo sapiens, UniProt P05181)", "T4 construct": "tissue PrimeTox M10000.201800; host or cells: pooled human liver microsomes (50 donors)", "test": "CYP2E1 inhibition in HLMs, chlorzoxazone 6-hydroxylation probe reaction", "type": "in vitro ADME", "conditions": "pooled HLMs; ECH 0-100 μM; substrate chlorzoxazone 120 μM; read-out: IC50 of CYP2E1 enzyme activity", "description": "as §1, §2, §3"}, "CYP2C19 [5]": {"biological_target": "T2, CYP2C19", "test": "CYP2C19 inhibition in HLMs, S-mephenytoin 4-hydroxylation probe reaction", "type": "in vitro ADME", "conditions": "pooled HLMs; ECH 0-100 μM; substrate S-mephenytoin 100 μM; read-out: IC50 of CYP2C19 enzyme activity", "description": "as §1, §2, §3"}, "CYP2E1 [6]": {"biological_target": "T4, CYP2E1", "test": "Inhibition kinetics of CYP2E1 in HLMs (Lineweaver-Burk plots)", "type": "in vitro ADME", "conditions": "secondary plot of Lineweaver-Burk", "description": "as §4, §5, §6, §7, §8"}, "CYP1A2 [7]": {"biological_target": "T3, CYP1A2", "test": "CYP1A2 inhibition in HLMs, phenacetin O-deethylation probe reaction", "type": "in vitro ADME", "conditions": "pooled HLMs; ECH 0-100 μM; substrate phenacetin 40 μM; read-out: IC50 of CYP1A2 enzyme activity", "description": "as §1, §2, §3"}},
  "data": [
    {"substance": "Echinacoside", "values": [
      {"measurement": "identification in human plasma samples", "setting": "[1]", "result": "could not be identified"},
      {"measurement": "IC50", "setting": "CYP3A4", "result": 55.4, "unit": "µM"},
      {"measurement": "Ki", "setting": "CYP2C19 [2]", "result": 4.41, "unit": "µM"},
      {"measurement": "Ki", "setting": "CYP1A2 [3]", "result": 10.6, "unit": "µM"},
      {"measurement": "IC50", "setting": "CYP2E1 [4]", "result": 19.2, "unit": "µM"},
      {"measurement": "IC50", "setting": "CYP2C19 [5]", "result": 8.7, "unit": "µM"},
      {"measurement": "Ki", "setting": "CYP2E1 [6]", "result": 9.67, "unit": "µM"},
      {"measurement": "IC50", "setting": "CYP1A2 [7]", "result": 21.2, "unit": "µM"}
    ]}
  ]
}
